# Measured values: patent US8217060B2, “Benzimidazole derivatives useful as TRP M8 receptor modulators” (Janssen Pharmaceutica, NV, priority 2009, dated 2012)
# By UniProt entry, the sequences of proteins in these tests, tags left out. Residues count along the entry.
# UniProt Q1A7N1, 1-1104: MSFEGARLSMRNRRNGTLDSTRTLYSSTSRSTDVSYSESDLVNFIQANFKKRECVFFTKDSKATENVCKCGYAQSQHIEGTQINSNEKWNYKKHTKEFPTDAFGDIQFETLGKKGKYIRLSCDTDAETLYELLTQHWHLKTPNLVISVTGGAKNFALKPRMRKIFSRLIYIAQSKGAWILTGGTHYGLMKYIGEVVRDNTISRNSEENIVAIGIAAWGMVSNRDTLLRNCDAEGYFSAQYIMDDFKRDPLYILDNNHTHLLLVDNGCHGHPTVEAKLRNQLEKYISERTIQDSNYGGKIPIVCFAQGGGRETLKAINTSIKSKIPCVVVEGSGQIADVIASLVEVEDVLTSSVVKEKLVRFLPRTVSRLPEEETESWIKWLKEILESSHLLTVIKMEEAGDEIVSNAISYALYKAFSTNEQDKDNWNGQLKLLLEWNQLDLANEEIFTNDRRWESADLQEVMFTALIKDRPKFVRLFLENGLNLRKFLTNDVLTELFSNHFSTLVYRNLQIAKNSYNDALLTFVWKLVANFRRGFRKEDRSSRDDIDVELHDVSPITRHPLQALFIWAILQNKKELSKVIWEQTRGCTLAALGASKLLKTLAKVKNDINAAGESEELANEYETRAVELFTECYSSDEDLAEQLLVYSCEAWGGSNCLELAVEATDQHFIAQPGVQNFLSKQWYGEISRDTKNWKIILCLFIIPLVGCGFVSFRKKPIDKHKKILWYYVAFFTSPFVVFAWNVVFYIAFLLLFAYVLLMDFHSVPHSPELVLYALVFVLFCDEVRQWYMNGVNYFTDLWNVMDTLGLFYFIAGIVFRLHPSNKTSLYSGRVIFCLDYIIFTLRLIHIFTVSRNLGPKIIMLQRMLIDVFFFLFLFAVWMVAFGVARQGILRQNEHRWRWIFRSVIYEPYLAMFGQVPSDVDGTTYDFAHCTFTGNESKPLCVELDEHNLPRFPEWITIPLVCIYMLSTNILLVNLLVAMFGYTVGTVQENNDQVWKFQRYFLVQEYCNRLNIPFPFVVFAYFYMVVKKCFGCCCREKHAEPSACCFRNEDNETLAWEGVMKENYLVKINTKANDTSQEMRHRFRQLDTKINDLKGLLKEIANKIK
# pIC50: −log10 of the molar value.
# Biological target: T1, canine TRPM8 (Canis lupus familiaris, UniProt Q1A7N1)
# T1 construct: expressed in transfected cells
# Assay: In Vitro Canine TRPM8 Functional Assay (icilin-induced intracellular Ca2+ fluorescence, FLIPR/FDSS)
# Assay type: cell-based
# Settings: HEK293 cells stably expressing canine TRPM8
# Protocol: The functional activity of representative compounds of the formula (I) of the present invention were measured by measuring changes in intracellular calcium concentration using a Ca^2+-sensitive fluorescent dye. The changes in fluorescent signal were monitored by a fluorescence plate reader, either a FLIPR™ (Molecular Devices) or FDSS (Hamamatsu).
# HEK293 cells stably expressing canine TRPM8 were routinely grown as monolayers in Dulbecco's minimum essential medium supplemented with 10% FBS, 2 mM L-glutamine, 100 units/mL penicillin, 100 ug/mL streptomycin and 400 μg/mL G418. Cells were maintained in 5% CO2 at 37° C. […] Cells were challenged with compounds of the formula (I) (at varying concentrations) and intracellular Ca^2+ was measured for 5 min prior to the addition of icilin to all wells to achieve a final concentration that produces approximately an 80% maximal response.
# Basal FI was subtracted prior to normalizing data to percent of maximal response. Curves were generated using the average of quadruplicate wells for each data point, were analyzed using nonlinear regression of either sigmoidal dose response or sigmoidal dose response (variable slope). Finally, the EC50 and IC50 values were calculated with the best-fit dose curve determined by GraphPad Prism
substance,measurement,setting,value
(E)-2-(2-Cyclohexyl-vinyl)-5-(2-trifluoromethyl-pyridin-4-yl)-1H-benzimidazole hydrochloride [Compound 55],% Inh @ 0.2 μM,"0.2 μM test compound, icilin challenge",76%
same,pIC50,"icilin challenge (~80% maximal response), eight-point dose-response",7.30
